## Apparent affinities of Ab-14 variants for a coronavirus HR2 peptide

Antigen: PDVDLGDISGINAS, a 14-residue peptide of the SARS-CoV-2 spike HR2 region.

Parent scFv Ab-14: VH joined to VL by a (GGGGS)3 linker. Changes lie in the light chain CDRs alone.
VH: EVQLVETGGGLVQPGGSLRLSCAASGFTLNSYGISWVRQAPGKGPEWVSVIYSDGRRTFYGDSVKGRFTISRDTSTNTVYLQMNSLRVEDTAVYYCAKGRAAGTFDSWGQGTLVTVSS
VL: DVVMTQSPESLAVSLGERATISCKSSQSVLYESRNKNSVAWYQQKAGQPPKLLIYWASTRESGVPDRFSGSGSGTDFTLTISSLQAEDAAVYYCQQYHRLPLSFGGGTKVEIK

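Phage display of a naive human antibody library on the peptide gave the parent. AAYL50 was designed without a model: most single CDR substitutions and a random sample of double and triple ones. The assay is AlphaSeq: two haploid yeast populations carry antibody and antigen on their surface. The frequency of each diploid, read from paired DNA barcodes, reflects how well the two displayed proteins bind. Scores were corrected for input abundance and mapped to Kd with protein pairs of known affinity run in the same pool. Each pool was mated in three replicate cultures.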

Variants are written as CDR1, CDR2 and CDR3 of the light chain (limits as in the source). Parent: KSSQSVLYESRNKNSVA, WASTRES, QQYHRLPLS. This list gathers variants with a substitution at P101 (VL, numbered from residue 1). The Kd shown is the geometric mean over detected replicates; a lower Kd is a better binder. Where no diploid with the target was found in any replicate, the entry reads "no signal": below detection, most likely a poor binder, though not proof of it. Three control strains display no target. For library AAYL50, 18% of the pairings with them gave a signal, with a median of 15 µM and one signal in twenty below 970 nM, so weak values seen in few replicates may be background.

Variant KSSQSVLYESRNKNSVA, WASTREA, QQYHRLHLS showed 17 nM (3 of 3 replicates).
Variant KSSQSVLYERRNKPSVA, WASTRES, QQYHRLSLS showed no signal (0 of 3 replicates).
Variant KSSQSVLYESRNKNSVA, WASTRVS, QQYHRMWLS showed 4.6 nM (3 of 3 replicates).
Variant KSSQSVLYESQNKNSVA, WASSRES, QQYHRLTLS showed 970 nM (1 of 3 replicates).
Variant KSSQSVLYESRNKNSVA, WMSTRES, QQYHRLLLS showed 510 nM (3 of 3 replicates).
Variant KSSQSVLYESRNKNSVA, WASTRES, MQYHRLQLS showed 17 nM (3 of 3 replicates).
Variant KSSQSVLWESRNKNSVA, WAPTRES, QQYHRLFLS showed no signal (0 of 3 replicates).
Variant KSSQSVLYESRNKNSVA, WASTRES, QQYHRLNNW showed 1.3 mM (1 of 3 replicates).
Variant KSSQSVLYESRNKNSVA, WASTRDS, AQYHRLVLS showed 130 µM (1 of 3 replicates).
Variant KSKQSVLYESRNKNSVA, WASTRES, QYYHRLHLS showed 8.5 µM (1 of 3 replicates).
Variant KSSQSVPYESRNKNSVA, WASTRES, QQYHRWRLS showed 100 nM (3 of 3 replicates).
Variant KSSQSVLKESRYKNSVA, WASTRES, QQYHRLLLS showed 34 nM (3 of 3 replicates).
Variant KSSQSVLYESRNKNSVA, WASTRES, QQEHPLGLS showed 130 µM (2 of 3 replicates).
Variant KSSQSVLYESRNKNSVG, WASTRWS, QQYHRLNLS showed no signal (0 of 3 replicates).
Variant NSSQSVLMESRNKNSVA, WASTRES, QQYHRLMLS showed 60 nM (3 of 3 replicates).
Variant KSSQSVLYESRNKNRVA, WASTRES, QQYWRLALS showed no signal (0 of 3 replicates).
Variant KSSQSVLYESRNKNSVA, WASTRNS, QQYHRLHIS showed no signal (0 of 3 replicates).
Variant CSSQSVLYESRNKNSVA, WASTRES, QQWHRLELS showed no signal (0 of 3 replicates).
Variant KSSQSVLYESRNKNSVA, WATTRES, QQYHTLALS showed no signal (0 of 3 replicates).
Variant KSSQSVLYENRNKNSVA, WAETRES, QQYHRLVLS showed 180 nM (3 of 3 replicates).
Variant KSSQSVWYESRNKNSVA, WASTREL, QQYHRLALS showed 840 nM (3 of 3 replicates).
Variant KSSQSVFYESINKNSVA, WASTRES, QQYHRLGLS showed 120 nM (3 of 3 replicates).
Variant KSSQSVLYESRNKNSFA, EASTRES, QQYHRLILS showed 16 nM (3 of 3 replicates).
Variant KSSQSVLYESRNKNSVA, WLSTRES, QQYHRLCLT showed 1.8 µM (3 of 3 replicates).
Variant KSSQSVLYQQRNKNSVA, WASTRES, QQYHRLDLS showed no signal (0 of 3 replicates).
Variant KSSQSVLYDSRNKNSVA, WASTRES, QQYHRLALS showed 4.6 nM (3 of 3 replicates).
Variant KSSQSVLYERRNKNSVA, WASTRES, QQYHRLDLS showed 220 nM (3 of 3 replicates).
Variant KSSQSVLYESRDKNSVA, WAMTRES, QQYHRLRLS showed 2.1 µM (2 of 3 replicates).
Variant KSSQSVLYESNNKNSVA, WASTRES, QQYHRICLS showed 2.7 nM (3 of 3 replicates).
Variant KSSQSVLYESRNKNSVA, WASTRES, QQRHRLTLS showed 790 nM (3 of 3 replicates).
Variant KSSQSVLYVQRNKNSVA, WASTRES, QQYHRLDLS showed 650 nM (3 of 3 replicates).
Variant KSSQSVLYESRNKNSVA, WASTRES, QQYHALVLS showed 13 nM (3 of 3 replicates).
Variant KSSQSVLYESRNKNSVA, WASSRES, QQYHRLTCS showed 88 nM (3 of 3 replicates).
Variant KSSQSVLYESDNKNSVA, WASTRES, KQYHRLLLS showed 9.5 µM (1 of 3 replicates).
Variant KSSQSVLYESRNKNHVA, WAQTRES, QQYHRLALS showed no signal (0 of 3 replicates).
Variant KSSQSVLYESRNKNSVA, WASRWES, QQYHRLHLS showed no signal (0 of 3 replicates).
Variant KSSQSVLYEWRNKNSVA, WISTRES, QQYHRLWLS showed 18 µM (2 of 3 replicates).
Variant KSSNSVLYESRNKNSVA, WASTRNS, QQYHRLVLS showed no signal (0 of 3 replicates).
Variant KSSQSVLYESRNKNSVA, KASKRES, QQYHRLQLS showed no signal (0 of 3 replicates).
Variant KSSQSVLYEDRNNNSVA, WASTRES, QQYHRLTLS showed no signal (0 of 3 replicates).
Variant KSSQSVLYESRNKNSVA, WASTRES, QQNHRLWLH showed no signal (0 of 3 replicates).
Variant KSSQSVLYESRNKNSVA, WASTLES, QQYHRGMLS showed 150 nM (3 of 3 replicates).
Variant KSSQGVLYESRNKNSVA, WASTRES, QQYHRLLCS showed no signal (0 of 3 replicates).
Variant KSSQSVLYESRNKNSVA, WASTRES, QQYHRLRDS showed 13 µM (3 of 3 replicates).
Variant KSSQSVLYESRNKNSVA, TASTRES, QQYHRLNLG showed 3.1 nM (3 of 3 replicates).
Variant KSSQSVLYESRNKNSVA, TASTRES, QQYHRLQLS showed no signal (0 of 3 replicates).
Variant KASQSVLYEQRNKNSVA, WASTRES, QQYHRLHLS showed 8.9 nM (3 of 3 replicates).
Variant KSSQSVLYLSRNKNSVA, WASTRES, QQYHLLRLS showed 110 nM (3 of 3 replicates).
Variant SSSQSVLYESRNKNSVA, WASTRES, WQYHRLELS showed no signal (0 of 3 replicates).

Top 5 of the variants detected in all replicates, tightest first:

{"CDR-L1": "KSSQSVLYESNNKNSVA", "CDR-L2": "WASTRES", "CDR-L3": "QQYHRICLS", "apparent Kd": "2.7 nM", "replicates with signal": "3/3"}
{"CDR-L1": "KSSQSVLYESRNKNSVA", "CDR-L2": "TASTRES", "CDR-L3": "QQYHRLNLG", "apparent Kd": "3.1 nM", "replicates with signal": "3/3"}
{"CDR-L1": "KSSQSVLYESRNKNSVA", "CDR-L2": "WASTRVS", "CDR-L3": "QQYHRMWLS", "apparent Kd": "4.6 nM", "replicates with signal": "3/3"}
{"CDR-L1": "KSSQSVLYDSRNKNSVA", "CDR-L2": "WASTRES", "CDR-L3": "QQYHRLALS", "apparent Kd": "4.6 nM", "replicates with signal": "3/3"}
{"CDR-L1": "KASQSVLYEQRNKNSVA", "CDR-L2": "WASTRES", "CDR-L3": "QQYHRLHLS", "apparent Kd": "8.9 nM", "replicates with signal": "3/3"}

Parent in this assay: reference entry 4.4 nM, copy in this library 48 nM.

Reference: Engelhart et al. 2022, doi:10.1038/s41597-022-01779-4. File: FLAb, binding data.